Assay results from US8507489B2.

Protein sequences, listed by entry. Tags and fused reporters are not part of them. Residues count along the entry.
UniProt P08581, 1078-1345 limits assumed: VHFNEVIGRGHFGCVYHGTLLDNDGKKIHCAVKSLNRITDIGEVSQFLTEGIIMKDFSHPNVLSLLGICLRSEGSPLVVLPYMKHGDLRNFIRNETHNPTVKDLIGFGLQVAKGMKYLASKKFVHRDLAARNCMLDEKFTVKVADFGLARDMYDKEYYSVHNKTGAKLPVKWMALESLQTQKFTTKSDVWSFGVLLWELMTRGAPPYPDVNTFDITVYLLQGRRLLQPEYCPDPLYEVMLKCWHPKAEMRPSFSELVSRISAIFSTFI

Molecular target: c-MET (Homo sapiens, UniProt P08581)
Assay: MET luminescence-based enzyme assay (Kinase-Glo)
Type: biochemical
Details: read-out: Enzyme Assay c-MET IC50

- IC50: 1 to 10 µM
Structure (SMILES): Cn1cc(-c2ccc3nnc([S+]([O-])c4ccc5ncccc5c4)n3n2)cn1 (stereo not shown)
